Measured affinities in a library of Ab-14 light chain variants

Data: MIT Lincoln Laboratory AlphaSeq set, Li et al. 2023, doi:10.1038/s41467-023-39022-2, as distributed in FLAb.

Antigen: PDVDLGDISGINAS, a 14-residue peptide of the SARS-CoV-2 spike HR2 region.

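The parent was found by panning a naive human phage display library on the peptide. Designed CDR sequences, proposed from the first random library and measured here. Their group label is 14L_GP_HC (GP: Gaussian process model; HC: hill climbing; a sequence that several methods proposed may carry one label only). In AlphaSeq, yeast of one mating type display the scFv and yeast of the other type display the target. Binding brings cells together so that they mate, and sequencing counts the barcode pairs among the diploids. A regression on co-assayed BCL2-family reference pairs converts the normalised counts of each replicate to an apparent Kd. There are six technical replicates.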

Parent scFv Ab-14: VH joined to VL by the linker GGGGSGGGGSGGGGS. Changes lie in the light chain CDRs alone.
VH: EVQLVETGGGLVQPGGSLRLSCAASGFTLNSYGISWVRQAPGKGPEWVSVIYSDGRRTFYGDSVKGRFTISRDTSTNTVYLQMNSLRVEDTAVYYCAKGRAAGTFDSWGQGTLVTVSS
VL: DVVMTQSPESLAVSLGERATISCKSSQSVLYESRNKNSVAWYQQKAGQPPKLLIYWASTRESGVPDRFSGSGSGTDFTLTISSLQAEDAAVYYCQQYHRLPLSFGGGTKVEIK

Each variant is given by its three light chain CDRs, as the data file delimits them; those of the parent are KSSQSVLYESRNKNSVA, WASTRES, QQYHRLPLS. Affinities are written as log10 Kd with Kd in nM; a lower number is a better binder. A pair that was not seen in that replicate is written "n.d."; this usually means weak binding, but a binder can also be missed.

{"CDR-L1": "KSSISYLTESRNENSVA", "CDR-L2": "EASTREQ", "CDR-L3": "QQYHRLPLS", "log10 Kd (nM) by replicate": "0.97 / 0.52 / 0.57 / 1.04 / 0.85 / 0.63", "control signals": "1 of 18 (4.02)"}
{"CDR-L1": "KSSFSGLYESRMKNSVA", "CDR-L2": "EASTRES", "CDR-L3": "QQYHRLPLS", "log10 Kd (nM) by replicate": "0.46 / 0.36 / 0.30 / 0.03 / 0.16 / 0.47", "control signals": "0 of 18"}
{"CDR-L1": "HSSPSVLYESRNKNSVA", "CDR-L2": "GASTRES", "CDR-L3": "QQYHRLPLQ", "log10 Kd (nM) by replicate": "n.d. / n.d. / n.d. / n.d. / n.d. / n.d.", "control signals": "0 of 18"}
{"CDR-L1": "KSKQSWLYESRNKNSVA", "CDR-L2": "GASRRES", "CDR-L3": "QQYHRLPLS", "log10 Kd (nM) by replicate": "0.64 / 0.53 / 0.26 / 0.22 / 0.62 / 0.70", "control signals": "0 of 18"}
{"CDR-L1": "KSQQSWGYESRNKNSVA", "CDR-L2": "GASTRES", "CDR-L3": "QQYHRLPLS", "log10 Kd (nM) by replicate": "0.57 / 0.19 / 0.18 / 0.15 / 0.22 / 0.21", "control signals": "0 of 18"}
{"CDR-L1": "QSSQSFLYESRNKNSVA", "CDR-L2": "EASTRES", "CDR-L3": "QQYHRLPLS", "log10 Kd (nM) by replicate": "-0.10 / -0.18 / -0.23 / -0.16 / -0.06 / 0.27", "control signals": "0 of 18"}
{"CDR-L1": "KLSQSVLYESRNKNSVA", "CDR-L2": "DASTRES", "CDR-L3": "YAYHRLPSS", "log10 Kd (nM) by replicate": "n.d. / n.d. / n.d. / n.d. / n.d. / n.d.", "control signals": "1 of 18 (2.25)"}
{"CDR-L1": "KSWWSVLYESNNKNSVA", "CDR-L2": "HASTRED", "CDR-L3": "QQYHRLPLS", "log10 Kd (nM) by replicate": "2.20 / 1.40 / 1.30 / 0.91 / 0.78 / 2.13", "control signals": "0 of 18"}
{"CDR-L1": "KSLWSHLYESVNKNSVA", "CDR-L2": "HASTRED", "CDR-L3": "QQYHRLPLS", "log10 Kd (nM) by replicate": "0.83 / 0.59 / 0.85 / 0.37 / 0.71 / 0.46", "control signals": "0 of 18"}
{"CDR-L1": "KSLQSVLYESGNKNSVA", "CDR-L2": "HASTRED", "CDR-L3": "QQYHRLPLS", "log10 Kd (nM) by replicate": "1.09 / 0.62 / 0.46 / 0.39 / 0.79 / 0.88", "control signals": "0 of 18"}
{"CDR-L1": "KSGQGVLYQSRNKNSVA", "CDR-L2": "GASTRES", "CDR-L3": "QQYHRLPLS", "log10 Kd (nM) by replicate": "0.44 / 0.31 / 0.38 / 0.31 / 0.56 / 0.67", "control signals": "2 of 18 (2.68)"}
{"CDR-L1": "KVRQSTQYESRNKNSVA", "CDR-L2": "WASTRES", "CDR-L3": "QQYHRLPLS", "log10 Kd (nM) by replicate": "1.59 / 1.16 / 2.53 / 1.53 / 0.97 / 0.90", "control signals": "1 of 18 (2.40)"}
{"CDR-L1": "KQSQSDLLESRNKNSVA", "CDR-L2": "DASTRES", "CDR-L3": "QQYHRLPLS", "log10 Kd (nM) by replicate": "0.13 / -0.05 / -0.23 / -0.22 / -0.12 / 0.03", "control signals": "1 of 18 (3.30)"}
{"CDR-L1": "HQSQSVLYESRNKNSVA", "CDR-L2": "NGSTREQ", "CDR-L3": "QQYHRLPLS", "log10 Kd (nM) by replicate": "0.28 / 0.07 / 0.08 / 0.06 / 0.07 / 0.31", "control signals": "3 of 18 (2.84)"}
{"CDR-L1": "KSSQSVLYESENKNSVA", "CDR-L2": "EASQRES", "CDR-L3": "QQYHRLPLS", "log10 Kd (nM) by replicate": "0.60 / 0.80 / 0.41 / 0.34 / 0.37 / 0.73", "control signals": "1 of 18 (3.86)"}
{"CDR-L1": "KLRQSVLYESRNQNSVA", "CDR-L2": "NASTRES", "CDR-L3": "QQYHRLPLS", "log10 Kd (nM) by replicate": "-0.26 / -0.36 / -0.50 / -0.60 / -0.49 / -0.25", "control signals": "0 of 18"}
{"CDR-L1": "KVSQSHLYESRNKNAVA", "CDR-L2": "GASTRES", "CDR-L3": "QQYHRLPLS", "log10 Kd (nM) by replicate": "0.23 / -0.06 / -0.08 / -0.18 / -0.04 / 0.27", "control signals": "0 of 18"}
{"CDR-L1": "KQSQSVLYESRDKNAVA", "CDR-L2": "DASTRES", "CDR-L3": "QQYHRLPLS", "log10 Kd (nM) by replicate": "0.46 / 0.29 / 0.00 / 0.07 / 0.20 / 0.20", "control signals": "0 of 18"}
{"CDR-L1": "KSSPSYLYESRNKNSVA", "CDR-L2": "EASTRES", "CDR-L3": "QQYHRLPLM", "log10 Kd (nM) by replicate": "0.09 / -0.40 / 0.27 / -0.12 / 0.15 / 0.29", "control signals": "0 of 18"}
{"CDR-L1": "KLGQGVLYESRNKNHVA", "CDR-L2": "GASTRES", "CDR-L3": "QQYHRLPLS", "log10 Kd (nM) by replicate": "0.07 / 0.07 / -0.16 / -0.29 / -0.19 / 0.09", "control signals": "1 of 18 (3.40)"}
{"CDR-L1": "KISQSVLQESRNKNSVA", "CDR-L2": "DASTRES", "CDR-L3": "QQYHRLPLS", "log10 Kd (nM) by replicate": "-0.18 / -0.27 / -0.34 / -0.44 / -0.39 / -0.22", "control signals": "3 of 18 (2.30)"}

The authors' rule: three or more of the six replicates give a measured affinity, fewer mean a poor binder. As a blank, each scFv also met three strains without target: over all light chain designs, 4% of these pairings were detected, typically at 2.64 and seldom below 1.59. The control count says in how many pairings with the empty strains this scFv gave a signal, with their mean in brackets. The range of this assay differs from that of the first round, and the authors advise against merging the two.